Values quoted from earlier work as cited in patent US6358491B1, “Somatostatin analogs” (Berlex Laboratories, Inc., priority 1999, dated 2002).

Details: 24 hours post-injection, cited from earlier work

^111In-DTPA-D-Phe^1-octreotide
retention in human liver: about 3.2 % injected dose
retention in kidney (human): about 3.7 % injected dose
retention in spleen (human): about 3 % injected dose
